Reference: patent US20110257035A1, “IDENTIFICATION OF SIGNATURE GENES ASSOCIATED WITH HEPATOCELLULAR CARCINOMA” (Bayer Healthcare LLC, priority 2008, published 2011)

Key:
[1] = test system: plasma s-VEGFR-3
Protocol: (§1) Plasma samples were obtained from patients at the time of screening, C3D1, and at the end of treatment visit.
(§2) All six assays were sandwich immunoassays obtained from commercial sources. All assays were performed according to the manufacturers' protocols, as summarized below. All samples were assayed in duplicate and the average value was used for correlative analysis.
Appropriately diluted samples and standards were pipetted into the wells, allowing capture of the target protein by the immobilized antibodies.

[2] = test system: plasma s-VEGFR-2
Protocol: as §1, §2
ELISA kits for VEGF (cat #DVE00), s-VEGFR-2 (cat #DVR200), HGF (cat #DHG00), and c-KIT (cat #DSCR00) were obtained from R&D Systems.
A monoclonal capture antibody specific to the target protein was provided pre-coated in microplate wells. Appropriately diluted samples and standards were pipetted into the wells, allowing capture of the target protein by the immobilized antibodies. Unbound sample was washed away, and a horseradish peroxidase-conjugated antibody also specific for the target protein was added to the wells. Wells were washed again, and a substrate solution was added to each well. The colored reaction product was measured spectrophotometrically and was translated to the quantity (pg/mL or ng/mL) of biomarker protein in the sample by use of a simultaneously generated standard curve.

[3] = test system: plasma bFGF; assay: Plasma bFGF level, baseline vs C3D1, HCC patients; type: in vivo, human; conditions: sorafenib arm, baseline mean 14.1
[4] = plasma level, in response to sorafenib treatment
[5] = sorafenib arm, C3D1, mean of per-subject absolute change, p vs placebo <0.0001

CNC(=O)c1cc(Oc2ccc(NC(=O)Nc3ccc(Cl)c(C(F)(F)F)c3)cc2)ccn1 [Sorafenib]
s-VEGFR-3 Mean change in sorafenib arm [1, 4]: −14.1% | VEGFR-3 Δ from BL (e) [1, 5]: -6826.3 pg/mL | VEGFR-3 Mean (d) ([1]; sorafenib arm, C3D1, baseline mean 44754.1): 37903.8 pg/mL | s-VEGFR-2 Mean change in sorafenib arm [2, 4]: −25.7% | VEGFR-2 Δ from BL (e) [2, 5]: -2295.8 pg/mL | VEGFR-2 Mean (d) ([2]; sorafenib arm, C3D1, baseline mean 8773.4): 6395.6 pg/mL | bFGF Mean (d) [3]: 16.1 pg/mL
